Measurements published in ChEMBL document CHEMBL4431356, “Synthesis and activity of benzimidazole-1,3-dioxide inhibitors of separase” (Bioorg Med Chem Lett, 2016).

By UniProt entry, the sequences of proteins in these tests, tags left out. Where a name states a change or a piece, a line headed by the entry shows the natural chain unless it says otherwise.
UniProt Q14674: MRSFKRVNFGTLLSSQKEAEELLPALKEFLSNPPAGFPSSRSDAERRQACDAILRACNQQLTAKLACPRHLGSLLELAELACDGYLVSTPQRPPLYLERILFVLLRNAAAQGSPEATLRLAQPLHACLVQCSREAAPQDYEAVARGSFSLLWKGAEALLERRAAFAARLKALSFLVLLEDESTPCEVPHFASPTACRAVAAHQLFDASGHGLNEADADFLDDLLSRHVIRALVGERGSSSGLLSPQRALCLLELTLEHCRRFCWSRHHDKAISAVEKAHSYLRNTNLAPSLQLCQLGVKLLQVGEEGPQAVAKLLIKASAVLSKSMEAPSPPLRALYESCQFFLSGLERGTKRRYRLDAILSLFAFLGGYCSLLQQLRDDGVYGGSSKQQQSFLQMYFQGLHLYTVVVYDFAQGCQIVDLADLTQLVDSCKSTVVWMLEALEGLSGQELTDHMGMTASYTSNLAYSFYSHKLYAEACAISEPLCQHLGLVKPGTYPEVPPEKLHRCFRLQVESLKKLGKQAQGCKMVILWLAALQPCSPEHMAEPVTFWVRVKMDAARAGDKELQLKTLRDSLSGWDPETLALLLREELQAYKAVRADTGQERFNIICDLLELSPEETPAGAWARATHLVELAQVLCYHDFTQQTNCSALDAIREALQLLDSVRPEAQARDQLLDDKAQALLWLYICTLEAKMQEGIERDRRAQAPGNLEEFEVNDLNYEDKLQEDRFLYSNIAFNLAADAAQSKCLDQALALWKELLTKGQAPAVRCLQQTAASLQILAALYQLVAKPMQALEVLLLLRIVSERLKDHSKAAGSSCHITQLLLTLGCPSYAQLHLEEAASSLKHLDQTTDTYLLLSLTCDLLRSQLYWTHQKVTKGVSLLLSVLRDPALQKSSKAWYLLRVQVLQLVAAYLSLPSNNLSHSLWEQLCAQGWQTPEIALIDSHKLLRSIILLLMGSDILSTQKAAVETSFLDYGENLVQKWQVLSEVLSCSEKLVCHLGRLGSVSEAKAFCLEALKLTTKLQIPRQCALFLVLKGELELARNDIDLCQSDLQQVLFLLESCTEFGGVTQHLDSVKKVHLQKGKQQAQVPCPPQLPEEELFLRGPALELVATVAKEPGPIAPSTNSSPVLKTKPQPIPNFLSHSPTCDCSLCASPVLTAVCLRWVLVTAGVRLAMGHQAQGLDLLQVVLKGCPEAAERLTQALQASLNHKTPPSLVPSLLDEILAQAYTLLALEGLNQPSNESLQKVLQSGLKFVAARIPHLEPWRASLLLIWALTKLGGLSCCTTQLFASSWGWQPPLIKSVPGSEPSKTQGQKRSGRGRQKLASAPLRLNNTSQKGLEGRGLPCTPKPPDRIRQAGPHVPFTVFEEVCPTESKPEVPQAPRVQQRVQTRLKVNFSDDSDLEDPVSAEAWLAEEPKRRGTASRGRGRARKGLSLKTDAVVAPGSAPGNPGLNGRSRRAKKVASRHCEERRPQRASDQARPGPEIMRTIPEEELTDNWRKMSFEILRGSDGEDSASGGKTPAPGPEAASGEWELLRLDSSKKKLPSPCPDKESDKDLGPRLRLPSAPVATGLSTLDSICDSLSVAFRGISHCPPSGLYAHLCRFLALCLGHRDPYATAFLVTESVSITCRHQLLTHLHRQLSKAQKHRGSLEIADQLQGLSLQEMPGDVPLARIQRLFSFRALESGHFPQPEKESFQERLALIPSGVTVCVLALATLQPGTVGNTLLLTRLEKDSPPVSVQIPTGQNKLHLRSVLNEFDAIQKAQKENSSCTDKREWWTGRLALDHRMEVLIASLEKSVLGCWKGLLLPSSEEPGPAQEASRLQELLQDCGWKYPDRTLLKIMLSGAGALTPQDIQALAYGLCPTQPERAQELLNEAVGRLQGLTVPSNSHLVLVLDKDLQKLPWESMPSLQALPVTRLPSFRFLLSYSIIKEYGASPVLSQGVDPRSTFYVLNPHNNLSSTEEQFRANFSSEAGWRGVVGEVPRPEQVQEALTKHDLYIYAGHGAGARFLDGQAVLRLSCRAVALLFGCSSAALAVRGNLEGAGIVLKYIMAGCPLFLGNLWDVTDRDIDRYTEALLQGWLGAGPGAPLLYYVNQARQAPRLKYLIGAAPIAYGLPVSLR

Biological target: Separin (Homo sapiens, UniProt Q14674)

O=[N+]([O-])c1ccc2no[n+]([O-])c2c1
IC50: > 100 µM
